Reference: patent US11555013B2, “Potent and selective inhibitors of monoamine transporters; method of making; and use thereof” (priority 2013, dated 2023)

Molecular target: human SERT wild type (Homo sapiens (Human), UniProt P31645)
Experiment: cell-based
Conditions: COS-7, read-out: hSERT WT Ki [S.E. interval] (nM)

Q: For `CNC(=O)CSC(c1ccccc1)c1ccccc1` [Compound 2g, 2-(Benzhydrylthio)-N-methylacetamide], which inhibition at 100 µM is on record?
A: Its inhibition at 100 µM is under 50%.
